The values that follow come from PubChem BioAssay AID2445 (The Scripps Research Institute Molecular Screening Center, 2010).

Protein sequences, listed by entry. Tags and fused reporters are not part of them. Lines headed by an entry give the natural chain unless they say otherwise; changes in a name come on top.
UniProt P30559: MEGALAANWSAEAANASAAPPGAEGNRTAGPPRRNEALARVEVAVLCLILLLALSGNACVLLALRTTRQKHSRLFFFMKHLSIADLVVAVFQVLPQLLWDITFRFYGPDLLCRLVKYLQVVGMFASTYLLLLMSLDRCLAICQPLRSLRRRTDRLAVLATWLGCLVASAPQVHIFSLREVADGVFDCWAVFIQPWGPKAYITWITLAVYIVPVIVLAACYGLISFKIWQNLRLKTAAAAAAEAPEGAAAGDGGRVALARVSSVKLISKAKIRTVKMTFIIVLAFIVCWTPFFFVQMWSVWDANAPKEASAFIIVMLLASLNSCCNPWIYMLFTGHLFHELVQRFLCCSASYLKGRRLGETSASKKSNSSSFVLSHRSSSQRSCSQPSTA

Structures are written as SMILES. Only a part is listed here, and it is no random draw. The source made the active and inactive calls.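 Rule for the calls: active = activation above that plate's cutoff, the mean activation of tested compounds plus 3 SD (cut at about 6.6% in these data, passing the limit was not always enough); inactive = the rest.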

This experiment addresses Oxytocin receptor (Homo sapiens) (UniProt P30559). As to the kind of experiment: human OXTR potentiators, primary screen, fluorescence, CHO-OTR cells, Fluo-8 calcium (AID 2445).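 Note: 100% uses oxytocin at 75 nM as the full agonist control.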 The note with it: Fluo-8 calcium fluorescence, potentiator mode, at 3 µM, hits give high values, 0% = oxytocin EC15, 100% = EC100.
`O=C(O)COc1ccc([As](=O)(O)O)cc1[N+](=O)[O-]`: the activation was inactive: -9.66%.

For the compound `Nc1ccccc1[As](=O)(O)c1ccccc1`, the activation is inactive: -2.59%.

As to `CS(=O)(=O)c1cc([N+](=O)[O-])c2no[n+]([O-])c2c1`, the activation was inactive: -1.86%.

With `O=P(Nc1nccs1)(c1ccccc1)c1nc2ccccc2s1` (centres undefined), the activation was inactive: -0.84%.

Turning to `O=P(Nc1nccs1)(Oc1ccccc1)Oc1ccccc1`, the activation is inactive: 0.08%.

As for `CCOP1(=S)c2c(C)nn(CCC#N)c2N=C(c2ccccc2F)N1C` (centres undefined), the activation is inactive: 1.82%.

As for `CCOP(=O)(Nc1cccc2ccccc12)OCC`, the activation is inactive: 5.41%.

In the case of `COc1cc(C2NCCC3(OCCO3)C2(C)C)cc(OC)c1OC` (centres undefined), the activation is inactive: 1.58%.

For the compound `CCCOP(=S)(Nc1nc(N)cc(=O)[nH]1)OCCC`, the activation is inactive: -11.4%.

For the compound `Cc1ccc(NCCc2c([N+](=O)[O-])cc([N+](=O)[O-])cc2[N+](=O)[O-])cc1`, the activation is inactive: -1.16%.

On to `Nc1cccc2c([As](=O)(O)O)cccc12`, for which the activation is inactive: -8.49%.

`O=[As](O)(c1cccc(O)c1)c1cccc(O)c1`: the activation was inactive: 3.48%.

In the case of `Cc1cccc(OCC(=O)OC2CN3CCC2CC3)c1` (centres undefined), the activation is inactive: -9.88%.

For `CS(=O)(=O)c1ccc(Cl)c(NC(=O)COC(=O)C(O)(c2ccccc2)c2ccccc2)c1`, the activation was inactive: -14.3%.

For the compound `COc1cc(C(=O)NCC2(N3CCOCC3)CCCCC2)cc(Cl)c1OC(C)C`, the activation was inactive: -14.3%.

For `O=[As](O)(O)c1cccnc1`, the activation was inactive: 2.42%.

As for `O=C(OC1CN2CCC1CC2)c1ccc(Cl)cc1` (centres undefined), the activation was inactive: -1.88%.

Consider `COc1ccc(N/C(=N/P(=O)(N2CCOCC2)N2CCOCC2)N2CCOCC2)cc1`, for which the activation is inactive: -0.07%.

Turning to `COc1cc(I)ccc1[As](=O)(O)O`, the activation is inactive: -3.58%.

As for `COc1ccc2nc(NP(=O)(c3ccccc3)c3ccccc3)sc2c1`, the activation is inactive: -5.83%.

With `Cc1cc(=O)[nH]c(N[N+](=O)[O-])n1`, the activation is inactive: -5.67%.

With `O=C(OC1CN2CCC1CC2)C12CC3CC(CC(C3)C1)C2` (centres undefined), the activation was inactive: -4.54%.

Regarding `Cc1c2c(nc3ccccc13)SC(C(Cl)Cl)C2` (centres undefined), the activation was inactive: 6.65%.

Take `O=[N+]([O-])c1cc([N+](=O)[O-])c(-c2ccn[nH]2)s1`: the activation is inactive: -7.1%.

In the case of `CCN(CC)C(=S)SC(NC=O)C(Cl)(Cl)Cl` (centres undefined), the activation was inactive: 6.81%.

For the compound `CC(C)NC(=O)NP(=O)(Oc1ccccc1)Oc1ccccc1`, the activation is inactive: 0.22%.

As to `CC(C)c1ccc(OP(=O)(Nc2ccccn2)Oc2ccccc2F)cc1` (centres undefined), the activation was inactive: -1.84%.

Regarding `ClCCSc1nnc(-c2cccnc2)o1`, the activation is inactive: -4.4%.

Turning to `Cc1ccc2nc3c(c(C)c2c1)CC(C(Cl)Cl)S3` (centres undefined), the activation was inactive: -13.9%.

Take `Cc1ccc(OP(=O)(Nc2ccc([N+](=O)[O-])cn2)Oc2ccc(C)cc2)cc1`: the activation is inactive: -8.64%.

Consider `COc1cc(C(=O)NCC2(N3CCOCC3)CCCCC2)ccc1OCC(C)C`, for which the activation is inactive: -2.51%.

`C[As](=O)(O)c1cccc(C(=O)O)c1`: the activation is inactive: -11.4%.

For the compound `O=[As](O)(c1ccc(O)cc1)c1ccccc1O`, the activation is inactive: 2.25%.

With `Cc1cc(SC(NC=O)C(Cl)(Cl)Cl)ncn1` (centres undefined), the activation is inactive: -16.7%.

Take `O=P(Nc1ccccn1)(c1cccc2ccccc12)c1cccc2ccccc12`: the activation was inactive: -9.55%.

For the compound `CCOC(=O)Nc1cccc([As](=O)(O)O)c1`, the activation is inactive: -9.56%.

For `Cc1cc(SC(NC(=O)c2ccccc2)C(Cl)(Cl)Cl)nc(C(C)C)n1` (centres undefined), the activation was inactive: -0.49%.

With `CCOC(=O)Nc1ccc([As](=O)(O)O)c(O)c1`, the activation was inactive: -3.55%.

On to `CCC(C)N(CC(C)C)C(=S)SC(NC(C)=O)C(Cl)(Cl)Cl` (centres undefined), for which the activation was inactive: -10.6%.

Take `CCOC(=O)c1ccc(NC(=O)C(C)(CCl)SC)cc1` (centres undefined): the activation was inactive: -13.9%.

On to `O=C(OC1CN2CCC1CC2)c1cccc([N+](=O)[O-])c1` (centres undefined), for which the activation was inactive: 0.94%.

For `O=C(Nc1ccncc1[N+](=O)[O-])c1ccc([N+](=O)[O-])cc1[N+](=O)[O-]`, the activation was inactive: -8.66%.

With `O=C(COc1ccccc1)OC1CN2CCC1CC2` (centres undefined), the activation is inactive: 1.85%.

As to `COP1(=S)c2c(C)nn(CCC#N)c2N=C(c2ccc(F)cc2)N1C` (centres undefined), the activation is inactive: -2.99%.
